Experimental data from patent publication US20240058417A1, “AMELIORATION AND TREATMENT OF INFARCTION DAMAGE” (priority 2021, published 2024).

System: DOX-induced cardiotoxicity
Assay: DOX treatment in vivo (cardiotoxicity, 42 days)
Details: T1 (16 days) and T2 (42 days)

COc1cccc2c1C(=O)c1c(O)c3c(c(O)c1C2=O)C[C@@](O)(C(=O)CO)C[C@@H]3O[C@H]1C[C@H](N)[C@H](O)[C@H](C)O1 [DOX, Doxorubicin]
negatively impaired: ejection fraction (EF %) | fractional shortening (FS %) | isovolumetric relaxation time (IVRT)
